# Experiments:
# [1] = biological target: T1, GPR7 (Homo sapiens, UniProt P48145); test: Inhibiting activity of intracellular cAMP production, human GPR7 expressing CHO cells; type: cell-based; set-up: expressed in transfected cells; host or cells: CHO dhfr- cells, plasmid pAKKO-Human GPR7; membrane fraction; settings: forskolin
# T1 sequence (P48145 1-328): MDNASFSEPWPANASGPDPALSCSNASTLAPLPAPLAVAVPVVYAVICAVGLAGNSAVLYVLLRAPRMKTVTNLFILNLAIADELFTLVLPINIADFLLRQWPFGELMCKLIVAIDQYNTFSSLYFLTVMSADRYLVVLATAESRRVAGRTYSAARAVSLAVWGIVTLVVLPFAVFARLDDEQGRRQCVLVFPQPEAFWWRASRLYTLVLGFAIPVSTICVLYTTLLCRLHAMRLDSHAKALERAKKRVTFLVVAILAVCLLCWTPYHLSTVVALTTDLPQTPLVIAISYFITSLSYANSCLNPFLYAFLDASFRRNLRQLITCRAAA
# Method: The human GPR7 expressing CHO cells, which are prepared in Reference Example 78 and selected as described in Reference Example 79, were seeded on 24-well plate at 5×10^4 cells/well and cultivated for 48 hours. The cells were washed with MEMα buffer (pH7.4) containing 0.2 mM 3-isobutyl-methylxanthine, 0.05% BSA (bovine serum albumine) and 20 mM HEPES [hereafter, MEMα buffer (pH7.4) containing 0.2 mM 3-isobutyl-methylxanthine, 0.05% BSA (bovine serum albumine) and 20 mM HEPES may be referred to as reaction buffer]. Then, 0.5 ml of the reaction buffer was added to the cells and the suspension was incubated for 30 minutes in the incubator. After removal of the reaction buffer and newly adding 0.25 ml of the reaction buffer to the cells, an appropriate concentration of sample in DMSO solution and 0.25 ml of the reaction buffer containing 2 μM forskolin were added to the cells and the mixture was reacted at 37° C. for 30 minutes. For termination of the reaction, 100 μl of 20% perchloric acid was added. […] The cAMP level in the extract was measured using the cAMP EIA Kit (Amersham Pharmacia Biotech).
# The hGPR8L(1-23) or the hGPR8L(1-30) was administered at various concentrations to the human GPR7 expressing CHO cells by the method described in Reference Example 80, and an inhibiting activity of intracellular cAMP production was measured. […]
# [2] = biological target: T2, TGR26 (Rattus norvegicus, UniProt Q56UD9); test: Inhibiting activity of intracellular cAMP production, TGR26 expressing CHO cells; type: cell-based; settings: forskolin
# T2 construct: treated with restriction enzymes ClaI and SpeI, and the insert encoding TGR26 was excised; expressed in transfected cells; host or cells: CHO dhfr- cells, plasmid pAK-rGPR7; membrane fraction
# T2 sequence (Q56UD9 1-329): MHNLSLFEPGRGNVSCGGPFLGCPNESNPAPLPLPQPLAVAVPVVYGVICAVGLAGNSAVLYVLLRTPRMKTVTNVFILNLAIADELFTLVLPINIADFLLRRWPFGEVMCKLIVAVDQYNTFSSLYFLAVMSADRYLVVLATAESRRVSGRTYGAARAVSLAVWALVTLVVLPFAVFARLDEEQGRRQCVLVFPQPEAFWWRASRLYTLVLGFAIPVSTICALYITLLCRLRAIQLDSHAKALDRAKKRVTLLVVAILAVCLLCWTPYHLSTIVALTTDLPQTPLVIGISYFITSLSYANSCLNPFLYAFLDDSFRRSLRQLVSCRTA
# Method: TGR26 expressing CHO cells prepared in Reference Example 68, were seeded on 24-well plate at 5×10^4 cells/well and cultivated for 48 hours. The cells were washed with MEMα buffer (pH7.4) containing 0.2 mM 3-isobutyl-methylxanthine, 0.05% BSA (bovine serum albumine) and 20 mM HEPES [hereafter, MEMα buffer (pH7.4) containing 0.2 mM 3-isobutyl-methylxanthine, 0.05% BSA (bovine serum albumine) and 20 mM HEPES may be referred to as reaction buffer]. Then, 0.5 ml of the reaction buffer was added to the cells and the suspension was incubated for 30 minutes in the incubator. […] The cAMP level in the extract was measured using the cAMP EIA Kit (Amersham Pharmacia Biotech).
# The human homologue of GPR8 ligand peptide consisting of 23 residues, which was obtained in Reference Example (hereafter, sometimes referred to as hGPR8L(1-23)), or the human homologue of GPR8 ligand peptide consisting of 30 residues, which was obtained in Reference Example (hereafter, sometimes referred to as hGPR8L(1-30)), was administered at various concentrations to membrane fraction of the TGR26 expressing CHO cells by the method described in Reference Example 69, and an inhibiting activity of intracellular cAMP production was measured. […]
Structure (SMILES),inhibiting activity of intracellular cAMP production (in words) [1],inhibiting activity of intracellular cAMP production (in words) [2]
CSCC[C@H](NC(=O)[C@H](CC(C)C)NC(=O)[C@H](CC(C)C)NC(=O)CNC(=O)[C@H](C)NC(=O)[C@H](C)NC(=O)[C@H](CCCNC(=N)N)NC(=O)CNC(=O)[C@@H](NC(=O)[C@@H](NC(=O)[C@H](Cc1c[nH]cn1)NC(=O)[C@H](Cc1ccc(O)cc1)NC(=O)[C@H](CCCNC(=N)N)NC(=O)[C@@H]1CCCN1C(=O)[C@H](CO)NC(=O)[C@H](C)NC(=O)[C@@H](NC(=O)[C@H](Cc1c[nH]cn1)NC(=O)[C@H](CCCCN)NC(=O)[C@H](Cc1ccc(O)cc1)NC(=O)[C@@H](N)Cc1c[nH]c2ccccc12)C(C)C)[C@@H](C)O)C(C)C)C(=O)NCC(=O)N[C@@H](CC(C)C)C(=O)O [hGPR8L(1-23)],apparently inhibited intracellular cAMP production,apparently inhibited intracellular cAMP production
CSCC[C@H](NC(=O)[C@H](CC(C)C)NC(=O)[C@H](CC(C)C)NC(=O)CNC(=O)[C@H](C)NC(=O)[C@H](C)NC(=O)[C@H](CCCNC(=N)N)NC(=O)CNC(=O)[C@@H](NC(=O)[C@@H](NC(=O)[C@H](Cc1c[nH]cn1)NC(=O)[C@H](Cc1ccc(O)cc1)NC(=O)[C@H](CCCNC(=N)N)NC(=O)[C@@H]1CCCN1C(=O)[C@H](CO)NC(=O)[C@H](C)NC(=O)[C@@H](NC(=O)[C@H](Cc1c[nH]cn1)NC(=O)[C@H](CCCCN)NC(=O)[C@H](Cc1ccc(O)cc1)NC(=O)[C@@H](N)Cc1c[nH]c2ccccc12)C(C)C)[C@@H](C)O)C(C)C)C(=O)NCC(=O)N[C@@H](CC(C)C)C(=O)N[C@@H](CCCNC(=N)N)C(=O)N[C@@H](CCCNC(=N)N)C(=O)N[C@@H](CO)C(=O)N1CCC[C@H]1C(=O)N[C@@H](Cc1ccc(O)cc1)C(=O)N[C@@H](CC(C)C)C(=O)N[C@@H](Cc1c[nH]c2ccccc12)C(=O)O [hGPR8L(1-30)],apparently inhibited intracellular cAMP production,apparently inhibited intracellular cAMP production

# — patent US7375074B2, “Body weight gain inhibitor” (priority 2001, dated 2008)
